Test system: laccase
Experiment: inhibition of purified laccase activity, Ki

Compound: [N-]=[N+]=N
- Ki: 30 µM
